Assay results: patent US5753661A, “Fused benzo compounds containing a nitrogen heterocycle for the treatment of central nervous system disorders” (priority 1992, dated 1998)

The chains behind the UniProt entries cited, without tags or fusion partners.
UniProt P19327, whole entry: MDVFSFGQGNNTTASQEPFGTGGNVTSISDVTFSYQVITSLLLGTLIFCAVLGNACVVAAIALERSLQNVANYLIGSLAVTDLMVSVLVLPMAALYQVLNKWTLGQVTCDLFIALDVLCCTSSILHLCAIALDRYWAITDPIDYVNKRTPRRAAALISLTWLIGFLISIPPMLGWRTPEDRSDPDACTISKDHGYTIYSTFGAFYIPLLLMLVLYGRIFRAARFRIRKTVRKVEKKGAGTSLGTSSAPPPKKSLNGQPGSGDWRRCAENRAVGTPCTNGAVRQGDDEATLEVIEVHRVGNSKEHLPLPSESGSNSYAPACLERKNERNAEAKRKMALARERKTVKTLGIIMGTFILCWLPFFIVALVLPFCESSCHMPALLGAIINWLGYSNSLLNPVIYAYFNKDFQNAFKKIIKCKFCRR

Assays:
5-HT1A receptor [1] = target: T1, 5-HT1A receptor (Rattus norvegicus, UniProt P19327); test: Generalization to the discriminative stimulus properties induced by 8-OH-DPAT in rats (8-OH-DPAT cue, agonism); format: in vivo, rat (male Wistar); parameters: from tissue; host or cells: living male Wistar rat (in vivo, endogenous receptor); conditions: s.c.; usually 30 or 45 min before test
Description: Generalization to the Discriminative Stimulus Properties Induced by 8-OH-DPAT in Rats
This test is used to determine the 5-HT1A receptor agonistic effect of a test compound in vivo. A related method is described by Tricklebank, M. D., supra; Amt, J. Pharmacology & Toxicology, 1989, 64, 165.
The procedure is the same as for the antagonism test mentioned above, except that the test compound is substituted for 8-OH-DPAT and injected s.c. usually 30 min or 45 min, respectively, before beginning of the test.
The per cent drug responce obtained for each dose of test compound is used to calculate ED50 values by log-probit analysis.

5-HT1A receptor [2] = target: T1, 5-HT1A receptor; test: Inhibition of 5-MeO-DMT-induced 5-HT syndrome in rats; format: in vivo, rat (male Wistar); parameters: Male Wistar rats (Mol:Wist) weighing 170-240 g are used; from tissue; host or cells: living male Wistar rat (Mol:Wist) (in vivo, endogenous receptor); conditions: s.c.; 5-MeO-DMT 5 mg/kg s.c.; inhibition of piano playing
Excerpt: Inhibition of 5-MeO-DMT-Induced 5-HT Syndrome in Rats
The so-called 5-HT syndrome is a characteristic pattern of behaviours which are induced by 5-HT agonists with effects on 5-HT, possibly 5-HT1A receptors (Smith, L. M. and Peroutka, S. J., Pharmacol. Biochem. & Behaviour, 1986, 24, 1513; Tricklebank, M. et al, Eur. J. Pharmacol. 1985, 117, 15). This test is a test for determining the antagonist effects of a test compound on 5-HT1A receptors in vivo by measuring the ability to inhibit 5-MeO-DMT induced 5-HT syndrome.
Male Wistar rats (Mol:Wist) weighing 170-240 g are used. Test substance is injected s.c. before 5-MeO-DMT 5 mg/kg, s.c. Four rats are used for each dose. A control group pretreated with saline is included each test day. 10, 15 and 20 min later the rats are observed for presence of serotonin (5-HT) syndrome. The following symptoms are recorded: 1) forepaw treading ("piano playing"), 2) head weaving and 3) hindleg abduction. Furthermore, flat motility is scored. Each part of the syndrome is scored as follows: marked effect (score 2), weak syndrome (score 1) and no effect (score 0). The scores of the three observation periods are added. […] The effect of the test substance is expressed as percent inhibition relative to the control group.
The percent inhibition of the piano playing syndrome is used as the response and ED50 value are calculated by log-probit analysis.

5-HT1A receptor [3] = target: T1, 5-HT1A receptor; test: Inhibition of 3H-8-OH-DPAT binding to serotonin 5-HT1A receptors in rat brain in vitro; parameters: 5-HT1A receptors in membranes from rat brain minus cerebellum; from tissue; host or cells: rat brain minus cerebellum, membranes; conditions: 3H-8-OH-DPAT 1 nM; membranes from rat brain minus cerebellum
Description: Inhibition of ^3 H-8-OH-DPAT Binding to Serotonin 5-HT1A Receptors in Rat Brain in vitro.
By this method the inhibition by drugs of the binding of the 5-HT1A agonist 3H-8-OH-DPAT (1 nM) to 5-HT1A receptors in membranes from rat brain minus cerebellum is determined in vitro . Accordingly, this is a test for affinity for the 5-HT1A receptor. The assay was performed as described by Hyttel et al., Drug Dev. Res. 1988, 15, 389-404.

Molecule: 2-[4-[4-(2-pyrimidyl)-1-piperazinyl]butyl]-1,2-benzothiazol-3(2H)-one-1,1-dioxide [Gepirone, reference compound]
- ED50 Agonism, 8-OH-DPAT cue (5-HT1A receptor [1]): 0.81 µmol/kg
- ED50, inhibition of 5-MeO-DMT induced 5-HT syndrome (5-HT1A receptor [2]): 32 µmol/kg
- IC50 (5-HT1A receptor [3]): 310 nM

Molecule: 4,4-dimethyl-1-[4-[4-(2-pyrimidyl)-1-piperazinyl]butyl]-2,6-piperidinedione [Ipsapirone, reference compound]
- ED50 Agonism, 8-OH-DPAT cue (5-HT1A receptor [1]): 1.6 µmol/kg
- ED50, inhibition of 5-MeO-DMT induced 5-HT syndrome (5-HT1A receptor [2]): 26 µmol/kg
- IC50 (5-HT1A receptor [3]): 17 nM

Molecule: O=C1N(CCN2CCN(c3cccc4c3OCCO4)CC2)CCN1C1CCCCC1 [Compound 2d, 1-[2-[4-(1,4-Benzodioxan-5-yl)-1-piperazinyl]ethyl]-3-cyclohexyl-2-imidazolidinone]
- IC50 (5-HT1A receptor [3]): 17 nM
